Results published in patent US7879571B2, “Population based assessments and means to rank the relative immunogenicity of proteins” (Danisco US Inc., priority 2003, dated 2011).

System: CD4+ T-cells
Experiment: I-MUNE assay: CD4+ T-cell proliferation with dendritic cells and 15-mer peptides offset by 3 amino acids, community donors
Settings: for Epitopes identified (in words): negative control, 87 community donors

Substance	Structure value in words	Epitopes identified (in words) (listed as human β2-microglobulin)	Epitopes identified (in words) (listed as human β-2 microglobulin)	Epitopes identified (in words) (listed as β2-microglobulin)	Epitopes identified (in words) (listed as β-2 microglobulin)	Background +/- sd (Table 5)
B2-microglobulin: human β2-microglobulin, negative control [reference compound]	low	did not identify any epitopes	no epitopes were found	None of the peptide responses were significant	no prominent epitope responses were found	
hIFN-B: human interferon-beta	comparatively high					3.17 +/− 3.28
